The experiment addresses recombinant α-tubulin (TUBA1A) protein (human, UniProt Q71U36). Kind of experiment: pull-down.

B1: GST fusion protein containing wild-type human SMYD2 (natural protein)
chain: MRAEGLGGLERFCSPGKGRGLRALQPFQVGDLLFSCPAYAYVLTVNERGNHCEYCFTRKEGLSKCGRCKQAFYCNVECQKEDWPMHKLECSPMVVFGENWNPSETVRLTARILAKQKIHPERTPSEKLLAVKEFESHLDKLDNEKKDLIQSDIAALHHFYSKHLGFPDNDSLVVLFAQVNCNGFTIEDEELSHLGSAIFPDVALMNHSCCPNVIVTYKGTLAEVRAVQEIKPGEEVFTSYIDLLYPTEDRNDRLRDSYFFTCECQECTTKDKDKAKVEIRKLSDPPKAEAIRDMVRYARNVIEEFRRAKHYKSPSELLEICELSQEKMSSVFEDSNVYMLHMMYQAMGVCLYMQDWEGALQYGQKIIKPYSKHYPLYSLNVASMWLKLGRLYMGLEHKAAGEKALKKAIAIMEVAHGKDHPYISEIKQEIESH
Consider B1, for which the binding result is “binds”.
